Measurements: PubChem BioAssay AID588436 (Broad Institute, 2011)
The entries are a selection whose mix differs from that of the whole data set. Some results for these compounds are left out of this collection, so the calls shown say nothing about other tests. The source made the active and inactive calls. Cut-off read from the data, not from the text of the source: active = activation mostly above about 9.7% (no sharp cut-off); inconclusive = no clear call, values can overlap the other calls; inactive = mostly below about 3.7%.

Assay: induces V. cholerae light production without autoinducers, primary screen, BH1578 luxS cqsA deficient, single point (AID 588436)
Conditions: V. cholerae BH1578 lux reporter, luminescence, 6 h, at 18.7 µM; stronger effect = higher value

Structure (SMILES)	activation
O=C(NCC1(N2CCCCC2)CCCCC1)c1cc([N+](=O)[O-])ccc1Cl	inactive: -0.391%
CN1[C@@H]2CC[C@H]1CC(OC(=O)C(O)(c1ccccc1)c1ccccc1)C2 (stereo partly specified)	inactive: -0.488%
COc1cc(SC)ccc1C(=O)NCC1(N(C)C)CCCCC1	inactive
CCN(CC)CC(C)C(C)OC(=O)C(O)(c1ccccc1)c1ccccc1 (stereo unspecified)	inactive: 0.027%
CC(C)N1C(=O)CC2(CCN(CCOC(=O)C(O)(c3ccccc3)c3ccccc3)CC2)C1=O	inactive
Cc1ccc(C(=O)NCC2(N3CCCCC3)CCCCC2)cc1	inactive: -0.465%
CN(C)C1CCCC1OC(=O)C(O)(c1ccccc1)c1ccccc1 (stereo unspecified)	inactive: -0.178%
CN(C)c1ccc(C(=O)NCC2(N(C)C)CCCCC2)cc1	inactive: 0.585%
Cc1ccccc1C(=O)NCC1(N2CCCCC2)CCCCC1	inactive: -0.141%
O=C(NCC1(N2CCCCC2)CCCCC1)c1cc(F)c(F)cc1Cl	inactive: -0.0915%
C=CCN1CCN(CCOC(=O)C(O)(c2ccccc2)c2ccccc2)CC1	inactive: -0.213%
COc1ccc(C(=O)NCC2(N(C)C)CCCCC2)cc1	inactive: -0.018%
O=C(NCC1(N2CCCCC2)CCCCC1)c1cccc(Br)c1	inactive: -0.326%
Cc1cc(C(=O)NCC2(N3CCCCC3)CCCCC2)ccc1[N+](=O)[O-]	inactive: -3.33%
CCN1CCCC(OC(=O)C2(O)c3ccccc3C=Cc3ccccc32)C1 (stereo unspecified)	inactive: 3.57%
CN(C)C1(CNC(=O)c2ccc(Br)cc2)CCCCC1	inactive: -6.67%
COc1cc(C(=O)NCC2(N(C)C)CCCCC2)c([N+](=O)[O-])cc1OC	inactive: -5.56%
COc1ccc(Cl)cc1C(=O)NCC1(N(C)C)CCCCC1	inactive: -0.618%
COc1cccc(C(=O)NCC2(N3CCCCC3)CCCCC2)c1	inactive
O=C(NCC1(N2CCCCC2)CCCCC1)c1cccc(Cl)c1	inactive: -0.336%
O=C(OC1CN2CCC1CC2)C(CO)(c1ccccc1)c1ccccc1 (stereo unspecified)	inactive
C=C(C)C#CC(O)(C(=O)OC1CCN(C)CC1)c1ccccc1 (stereo unspecified)	inactive
COc1ccc(Br)c(C(=O)NCC2(N3CCCCC3)CCCCC2)c1	inactive: -0.205%
O=C(OCCN1CCCC1)C(O)(c1ccccc1)c1ccccc1	inactive
CC(C)Oc1ccc(C(=O)NCC2(N(C)C)CCCCC2)cc1	inactive: 0.603%
CN(C)c1cccc(C(=O)NCC2(N(C)C)CCCCC2)c1	inactive: 0.397%
